Measurements: paper PMC4620045 (Journal of pharmacokinetics and pharmacodynamics, 2015)

Test: Global PBPK model fitted to mouse plasma and tissue PK data
Type: in vivo
Conditions: mice

In the case of `CC(C)C[C@H](NC(=O)[C@H](Cc1ccccc1)NC(=O)c1cnccn1)B(O)O` [Bortezomib], the “Permeability (PStc,ti)” value (Bone, model estimate) was 0.072 mL/min, the “Permeability (PStc,ti)” value (Erythrocyte, fixed to estimate from individual tissue fitting stage) was 17.0 mL/min and the “Permeability (PStc,ti)” value (Kidney, model estimate) was 0.069 mL/min. For the same compound, the “Permeability (PStc,ti)” value (Lung, model estimate) was 0.013 mL/min, the “Permeability (PStc,ti)” value (Remainder compartment, model estimate) was 4.17 mL/min and the “Permeability (PStc,ti)” value (Spleen, model estimate) was 0.01 mL/min.
